# AlphaSeq binding of Ab-14 light chain variants to a spike HR2 peptide

Reference: Li et al. 2023, doi:10.1038/s41467-023-39022-2. File: FLAb, binding data.

Antigen: PDVDLGDISGINAS, a 14-residue peptide of the SARS-CoV-2 spike HR2 region.

Parent: Ab-14, a human scFv built as VH, three GGGGS repeats, VL. Only the CDRs of the light chain vary.
VH: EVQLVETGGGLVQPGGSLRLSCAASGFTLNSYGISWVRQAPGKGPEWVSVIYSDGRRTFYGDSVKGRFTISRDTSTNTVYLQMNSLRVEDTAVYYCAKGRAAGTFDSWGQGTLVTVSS
VL: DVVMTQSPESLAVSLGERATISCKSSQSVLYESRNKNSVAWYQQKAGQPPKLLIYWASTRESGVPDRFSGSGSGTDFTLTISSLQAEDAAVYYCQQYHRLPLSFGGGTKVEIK

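The starting antibody came from a phage panning campaign against this peptide. The variants were designed computationally from a first round of random CDR variants and then made and measured. Group labels follow the data file (Ctrl: baseline library sampled from a position-specific scoring matrix, with some repeated check sequences; Rand: our label for a block that the file lists under HC and that is probably the random mutants of the ten best first-round binders; En: ensemble of fine-tuned language models; GP: Gaussian process model; HC: hill climbing; Gen: genetic algorithm; Gibbs: Gibbs sampling; a sequence that several methods proposed may carry one label only). AlphaSeq pools MATa yeast showing the antibodies with MATalpha yeast showing the peptide. After mating in shaken culture at 30 °C for 16 h, diploids were selected and their barcode pairs sequenced. The ratio of observed to expected reads was calibrated, replicate by replicate, on BCL2-family standards whose Kd was known from biolayer interferometry. Mating was done six times.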

Variants are written as CDR1, CDR2 and CDR3 of the light chain (limits as in the source). Parent: KSSQSVLYESRNKNSVA, WASTRES, QQYHRLPLS.
Scale: log10 of Kd in nM, estimated from mating counts; low values are strong binders.
Averages over replicates are reported, and they cover detected replicates only.
A pair that was not seen in that replicate is written "nd"; this usually means weak binding, but a binder can also be missed.

Variant KLPQSWLYESRNKNSVA / NASTREV / QQYHRLPLS [GP_Gen] showed 0.01, -0.37, 0.05, -0.06, -0.20, 0.08 (mean -0.08; controls 0 of 18).
Variant KSSNSTLYESGMKNSVA / NASKRMS / QQYHRLPLS [GP_Gibbs] showed 2.49, 1.56, 2.80, 1.62, 2.30, 2.49 (mean 2.21; controls 0 of 18).
Variant NIRIEDYSEHNNANNVA / STDCRCD / QQYFMLPLM [En_Gibbs] showed 1.07, 1.07, 1.04, 0.85, 0.72, 0.95 (mean 0.95; controls 0 of 18).
Variant ALSQSELYESRNKNSVA / NASTRES / QQYHRLPLS [GP_Gen] showed 0.48, 0.74, 0.11, 0.23, 0.21, 0.02 (mean 0.30; controls 1 of 18).
Variant KVQQSVPYESRNKNSVA / HASTRES / QQYHRLPLS [GP_Gen] showed -0.05, -0.14, -0.03, 0.27, -0.09, -0.09 (mean -0.02; controls 0 of 18).
Variant KWQWSWLYESRNKNSVA / EGSTRES / QQYHRLPLS [GP_Gibbs] showed 0.57, 0.56, 0.66, 0.80, 0.73, 0.78 (mean 0.68; controls 1 of 18).
Variant KLSGSQLYESRNKNSVA / GASTRES / QQYHRLPLS [GP_Gen] showed -0.21, -0.13, -0.13, -0.34, -0.26, -0.08 (mean -0.19; controls 4 of 18).
Variant KVSQSVLYESRNKNSVA / WASTRNM / QQYHRLPLT [Ctrl] showed 1.64, 1.31, 1.24, 0.91, 1.20, 0.70 (mean 1.17; controls 0 of 18).
Variant TISQMTTSFSQNINNVA / EVSTREK / QQYDRLPLS [En_Gen] showed 0.46, 0.39, 0.55, 0.92, 0.64, 0.76 (mean 0.62; controls 0 of 18).
Variant KDSQSVLYDSRNKNSVA / WASTRES / QQYSRLPLS [Ctrl] showed 0.69, 0.99, 0.72, 1.13, 1.18, 1.19 (mean 0.98; controls 0 of 18).
Variant WISQSVEYESRDKNSVA / NASTRES / QQYHRLPLS [GP_Gibbs] showed 0.89, 0.81, 0.41, 0.65, 0.43, 0.91 (mean 0.68; controls 0 of 18).
Variant KSSQSVLYESRNKNSVA / AASTHES / QQVHRLPLS [Ctrl] showed nd, nd, nd, nd, nd, nd (controls 0 of 18).
Variant KLSSSVLYESRNKNSVA / WASTRES / QQYHRLPLS [Ctrl] showed 1.43, 1.63, 1.63, 2.27, 1.80, 1.30 (mean 1.68; controls 0 of 18).
Variant KLRQSTLYESRNKNSVA / EASTRLS / QQYHRLPLS [GP_HC] showed 0.38, 0.09, 0.26, 0.41, 0.26, 0.34 (mean 0.29; controls 0 of 18).
Variant KISGYLNKESKDKNSVA / EMVNRES / QQYDRLPLS [En_HC] showed 0.34, 0.43, 0.16, 0.14, 0.15, 0.56 (mean 0.29; controls 2 of 18).
Variant HITDLMYNNNEGMQNIA / DKAISVM / QQYFRLPLD [En_Gibbs] showed 1.36, 1.21, 1.58, 1.24, 0.85, 1.57 (mean 1.30; controls 2 of 18).
Variant MMSQSGIYESRNKNSVA / WADTRES / QQYHRLPLS [Ctrl] showed 1.18, nd, nd, 2.50, 1.92, 1.44 (mean 1.76; controls 1 of 18).
Variant KWSCSQLYDSQNKNSVA / NASTRMM / QQYHRLPLS [GP_Gibbs] showed 0.01, -0.31, -0.06, -0.15, -0.32, -0.18 (mean -0.17; controls 0 of 18).
Variant KSSQSVLYESRNKNSVA / DAYTRES / QQYHRLPLS [Ctrl] showed 0.22, 0.18, -0.01, 0.57, 0.21, 0.16 (mean 0.22; controls 0 of 18).
Variant KSSQSVLYESRNKNSVA / WASTRES / QQYMRLPLS [Ctrl] showed nd, nd, nd, nd, 3.78, nd (controls 1 of 18).
Variant KLSNSELYESRQKNSVA / EASQREM / QQYHRLPLS [GP_Gibbs] showed 0.79, 0.65, 0.31, 0.72, 0.43, 0.88 (mean 0.63; controls 0 of 18).
Variant KMKQSVDGLDRNQNSVA / QASTREM / QQYHRLPLS [GP_Gibbs] showed 0.10, 0.17, -0.17, -0.13, 0.02, 0.00 (mean 0.00; controls 1 of 18).
Variant KISQSVQYMSRNKNSVA / WASTRES / QQYHRLPLS [Ctrl] showed 1.72, 0.92, 1.01, 0.86, 0.99, 1.20 (mean 1.12; controls 0 of 18).
Variant FMDFQMLEWQYDANNIA / GATLSVE / QQYGRLPLT [En_Gibbs] showed 2.27, 1.93, 1.45, 1.31, 0.72, 1.51 (mean 1.53; controls 1 of 18).

The remaining entries, values ahead:

1.25, 0.85, 0.74, 0.94, 1.26, 0.98 (mean 1.00; controls 0 of 18): KLRMSLLYESRNKNSVA / WASTRES / QQYHRLPLS [GP_HC].
-0.16, -0.20, -0.37, -0.38, -0.50, -0.25 (mean -0.31; controls 2 of 18): KLSQSDLYESRNKNAVA / NASQRES / QQYHRLPLS [GP_Gen].
0.29, -0.01, 0.05, -0.06, -0.01, 0.33 (mean 0.10; controls 0 of 18): KIEQSVLYEDRNINSVA / NASQRYS / QAYHRLPLS [GP_Gibbs].
1.49, nd, 2.02, nd, nd, nd (mean 1.75; controls 0 of 18): KSTQSVLYESRNKNSVA / WASTRES / QQYHRLPLS [Ctrl].
nd, 3.19, nd, nd, nd, nd (controls 0 of 18): KMSISYLYEYRNKNSVA / EASTYES / QQYHRLPLS [Rand].
0.63, 0.91, 0.99, 0.58, 0.83, 0.74 (mean 0.78; controls 0 of 18): KLAMYLSMWADTYHGVA / DANHKAS / QQYNRLPLS [En_Gibbs].
0.43, 0.31, 0.75, 0.37, 0.69, 0.33 (mean 0.48; controls 1 of 18): KLEQSCLYESRNKNSVA / NASQRES / QQYHRLPLS [GP_Gen].
0.09, -0.10, -0.04, -0.24, -0.03, -0.07 (mean -0.07; controls 4 of 18): HSSPSVQYESRNKNSVA / NASTREE / QDYHRLPLS [GP_HC].
0.84, 0.46, 0.74, 0.95, 0.47, 1.06 (mean 0.75; controls 0 of 18): KLSPSVNGQSRNKNSVA / HASTREQ / QDYHRLPLS [GP_Gibbs].
0.66, 0.21, 0.34, 0.40, 0.32, 0.37 (mean 0.38; controls 0 of 18): KLSQSVEQLSRNKNSVA / QASTREV / QAYHRLPLS [GP_Gibbs].
1.71, 1.19, 0.85, 0.85, 1.39, 1.15 (mean 1.19; controls 1 of 18): KIMQSLNYESFNKDSVA / GQETRER / QSYHRLPLS [En_HC].
0.83, 0.79, 0.97, 0.77, 1.07, 1.36 (mean 0.97; controls 1 of 18): RFPEHLLMLESKIRNIA / NATKTME / QQYFRLPLV [En_Gibbs].
-0.19, -0.01, -0.49, -1.05, -0.35, -0.58 (mean -0.45; controls 0 of 18): KSSISVLYESLNKNSVA / EASQRES / QQYHRLPLS [GP_HC].
nd, nd, nd, nd, nd, nd (controls 0 of 18): KLSGLMASSKFQKDNVA / ENNTREY / QQYDRLPLS [En_Gen].
-0.16, -0.38, -0.48, -0.41, -0.46, -0.26 (mean -0.36; controls 0 of 18): KLPQSWLYESRNKNSVA / NASERES / QQYHRLPLS [GP_Gen].
1.94, 1.18, 1.32, 1.39, 1.52, 1.28 (mean 1.44; controls 2 of 18): KSSESVLYESHNKNSVA / NASTRMS / QQYHRLPLS [GP_HC].
0.23, 0.15, -0.09, -0.08, 0.09, 0.21 (mean 0.09; controls 1 of 18): KLQQSQLYESRNKNSVA / NASQRLS / QQYHRLPLS [GP_Gen].
nd, 2.47, nd, nd, nd, nd (controls 3 of 18): KISPSVLGESWNKNSVA / SASTRES / QDYHRLPLS [Ctrl].
0.26, 0.23, -0.03, 0.38, 0.27, 0.43 (mean 0.26; controls 0 of 18): KFSQWVLYETRTKNSVA / NASTRES / QQYHRLPLS [GP_HC].
0.40, 0.04, -0.04, -0.31, -0.25, 0.26 (mean 0.01; controls 0 of 18): KLSGSQLYESRNKNSVA / NASTRES / QQYHRLPLS [GP_Gen].
-0.06, -0.31, -0.08, -0.31, -0.29, -0.15 (mean -0.20; controls 2 of 18): KLPQSFLYESRNKNSVA / AASTRES / QQYHRLPLS [GP_Gen].
0.41, 0.15, 0.10, -0.01, 0.06, 0.14 (mean 0.14; controls 2 of 18): KSSISNLYESRNKNSVA / EASTREQ / QQYHRLPLS [GP_HC].
0.39, 0.27, 0.57, 0.39, 0.35, 0.67 (mean 0.44; controls 2 of 18): KASQSVLYESRNKNSVA / DASTRES / QQYHRLPLD [GP_HC].
nd, nd, nd, nd, nd, nd (controls 0 of 18): VFSGLFQYDEQSYNSVA / EASLSNT / QQYISLPLS [En_Gibbs].

Extract of 4 entries:

CDR-L1,CDR-L2,CDR-L3,group,"log10 Kd, replicates","log10 Kd (nM), mean",control signals
NIRIEDYSEHNNANNVA,STDCRCD,QQYFMLPLM,En_Gibbs,"1.07, 1.07, 1.04, 0.85, 0.72, 0.95",0.95,0 of 18
KLPQSWLYESRNKNSVA,NASTREV,QQYHRLPLS,GP_Gen,"0.01, -0.37, 0.05, -0.06, -0.20, 0.08",-0.08,0 of 18
KISPSVLGESWNKNSVA,SASTRES,QDYHRLPLS,Ctrl,"nd, 2.47, nd, nd, nd, nd",2.47,3 of 18
WISQSVEYESRDKNSVA,NASTRES,QQYHRLPLS,GP_Gibbs,"0.89, 0.81, 0.41, 0.65, 0.43, 0.91",0.68,0 of 18

Of ten entries with the parent sequence, four were seen in most replicates (averages 0.34 to 2.37), three in one and three in none, so single entries are noisy.
The range of this assay differs from that of the first round, and the authors advise against merging the two.
Nonspecific signal, from three strains lacking the peptide, appeared in 4% of pairings of all light chain designs, centred on 2.64 (5% of these signals below 1.59); values are not corrected for it. The control count says in how many pairings with the empty strains this scFv gave a signal.
The authors averaged sequences with at least three values out of six and counted those with two or fewer as poor binders.